This note sets out measurements from US4560662A, “Streptomyces antibioticus ATCC 31771 and process for obtaining same” (priority 1981, dated 1985).

This series in a line: physchem. It is filed as physicochemical. The note with it: acidic environment, pH 4. On the procedure:
Stability in acidic environment at 25° C. of the novel
antibiotics in comparison with erythromycin A
t 1/2 represents the half life time of the antibiotics as determined by
high pressure liquid phase chromatography (HPLC).

On to `CC[C@H]1OC(=O)[C@H](C)[C@@H](O[C@H]2C[C@@](C)(OC)[C@@H](O)[C@H](C)O2)[C@H](C)[C@@H](O[C@@H]2O[C@H](C)C[C@H](N(C)C)[C@H]2O)[C@](C)(O)C[C@@H](C)C(=O)[C@H](C)[C@@H](O)[C@]1(C)O` [Erythromycin A, reference compound], for which the half-life (in general, how long it takes for the measured level to halve) is 2 h.
